Results on 1 compound are retold here after US12128173B2, “Dry powder drug delivery system and methods” (MannKind Corporation, priority 2012, dated 2024).

The nature of the data set: FDKP pharmacokinetics after inhalation, DPI 1 vs MEDTONE (Example 8). As to conditions: for AVG mean AUC fdkp per emitted fdkp mass: Part 3, DPI 1, 10 mg.

For the compound `O=C(O)/C=C/C(=O)NCCCCC1NC(=O)C(CCCCNC(=O)/C=C/C(=O)O)NC1=O` (stereo not shown) [FDKP, 3,6-bis(N-fumaryl-4-aminobutyl)-2,5-diketopiperazine], the “increase of FDKP plasma AUC over MEDTONE” value (FDKP 10 mg, DPI 1) is listed as approximately 2 fold. The “Mean Cmax” value (MEDTONE 10 mg, inhaled) was 95 ng/mL. The “AVG mean AUC fdkp per emitted fdkp mass” value is 3925 ng*min/mL*mg fdkp (easy inhalation effort) and 3867 ng*min/mL*mg fdkp (hard inhalation effort).
